The results in this text go back to patent US5221606A, “Reagent and kit for enzyme assay comprising a substrate consonant with given enzyme to be assayed” (King's College London, priority 1987, dated 1993).

This data set is described as follows: solubility in water or aqueous buffer.

Substance “2-[2-(4-Benzoyloxy-3-methoxyphenyl)-vinyl-1-methylquinolinium iodide [21e]” gave a solubility in water of 250 µM.
